Results on one compound are retold here after patent US20110092490A1, “PYRIMIDINES, TRIAZINES AND THEIR USE AS PHARMACEUTICAL AGENTS” (THE UNIVERSITY OF NOTTINGHAM, priority 2008, published 2011).

In one data set the test system is HCT-116. As to the kind of experiment: 72-h MTT cytotoxicity assay. The conditions noted are these: Homo sapiens, HCT-116, 72 h, read-out: Cytotoxicity GI50 HCT116. (In general: Tetrazolium assays rely on reduction of a dye to a coloured formazan, in cell work by metabolically active cells.)
Data set [1] is described as follows: 72-h MTT cytotoxicity assay. The conditions noted are these: human.

For orientation: GI50 means the concentration that inhibits growth by half. Consider `CNc1nc(C)c(-c2nc(Nc3cccc(O)c3)ncc2C#N)s1` [Example 1.3, 2-(3-Hydroxy-phenylamino)-4-(4-methyl-2-methylamino-thiazol-5-yl)-pyrimidine-5-carbonitrile], for which the GI50 with HCT-116 came out at 0.03 µM. In data set [1], this compound gave a GI50 at 72 h of 0.54 µM.
